Experimental data taken from patent US12357802B2, “Self-actuating articles” (priority 2017, dated 2025).

Details: micropost tips 40% G6PD and 60% PEO 200 k, vs uncompressed powder
Method: To perform the activity assay on G6PD, an activity assay kit (Sigma Aldrich) was used which measures the amount of oxidized glucose-6-phosphate. […] Duplicate assays were performed on the dissolved solution.

## glucose-6-phosphate dehydrogenase
  enzymatic activity after the manufacturing process: maintain their activity
